Earlier results on one substance are cited in publication PMC6759932.

Among the targets are HspB8 (Homo sapiens) (UniProt Q9UJY1); HspB6 (Homo sapiens) (UniProt O14558); HspB1 (Homo sapiens) (UniProt P04792); HspB2 (Homo sapiens) (UniProt Q16082).
Assay in all cases: SPR
In general terms: SPR reads the build-up and loss of mass on a sensor chip optically.

The target of data set [1] is HspB5 (αB-crystallin) (Homo sapiens) (UniProt P02511).

As a reminder, the Kd is the free concentration of one partner at which half of the binding sites on the other are occupied at equilibrium, for simple one-to-one binding. Take α-synuclein (from UniProt P37840): the Kd is 4000 nM with HspB8 (Homo sapiens); 400 nM with HspB6 (Homo sapiens); 60 nM in data set [1]; 400 nM with HspB1 (Homo sapiens); 4000 nM with HspB2 (Homo sapiens).
